The text below walks through data of patent US10112926B2 (priority 2014, dated 2018).

Protein sequences, listed by entry. Tags and fused reporters are not part of them. Lines headed by an entry give the natural chain unless they say otherwise; changes in a name come on top.
UniProt P42336, whole entry, looked up: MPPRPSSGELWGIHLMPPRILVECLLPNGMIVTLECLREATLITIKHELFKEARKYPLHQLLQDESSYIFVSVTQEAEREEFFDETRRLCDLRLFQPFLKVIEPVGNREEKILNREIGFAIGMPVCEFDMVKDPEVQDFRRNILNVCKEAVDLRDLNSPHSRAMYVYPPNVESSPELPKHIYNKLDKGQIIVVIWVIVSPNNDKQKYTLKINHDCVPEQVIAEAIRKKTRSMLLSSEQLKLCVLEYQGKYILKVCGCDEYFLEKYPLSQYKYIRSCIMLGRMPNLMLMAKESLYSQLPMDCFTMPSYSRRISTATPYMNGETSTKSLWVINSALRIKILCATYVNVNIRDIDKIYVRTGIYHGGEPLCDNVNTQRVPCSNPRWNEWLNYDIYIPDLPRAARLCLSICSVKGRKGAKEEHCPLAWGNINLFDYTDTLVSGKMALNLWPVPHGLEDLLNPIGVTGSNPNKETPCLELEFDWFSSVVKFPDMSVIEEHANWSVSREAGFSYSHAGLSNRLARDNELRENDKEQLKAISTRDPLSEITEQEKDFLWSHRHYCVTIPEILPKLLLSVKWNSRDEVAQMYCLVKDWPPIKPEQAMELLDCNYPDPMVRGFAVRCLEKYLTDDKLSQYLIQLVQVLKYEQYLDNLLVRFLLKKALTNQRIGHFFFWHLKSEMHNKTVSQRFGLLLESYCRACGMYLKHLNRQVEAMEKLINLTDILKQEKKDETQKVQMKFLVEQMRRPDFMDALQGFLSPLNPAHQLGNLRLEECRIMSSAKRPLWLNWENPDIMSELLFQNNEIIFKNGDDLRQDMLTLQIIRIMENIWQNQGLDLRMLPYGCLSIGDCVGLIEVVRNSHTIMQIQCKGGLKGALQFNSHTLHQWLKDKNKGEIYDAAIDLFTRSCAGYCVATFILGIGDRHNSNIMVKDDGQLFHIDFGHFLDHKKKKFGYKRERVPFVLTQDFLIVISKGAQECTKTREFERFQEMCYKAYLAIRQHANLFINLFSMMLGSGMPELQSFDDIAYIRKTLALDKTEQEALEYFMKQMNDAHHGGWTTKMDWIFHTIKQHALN
UniProt P42338: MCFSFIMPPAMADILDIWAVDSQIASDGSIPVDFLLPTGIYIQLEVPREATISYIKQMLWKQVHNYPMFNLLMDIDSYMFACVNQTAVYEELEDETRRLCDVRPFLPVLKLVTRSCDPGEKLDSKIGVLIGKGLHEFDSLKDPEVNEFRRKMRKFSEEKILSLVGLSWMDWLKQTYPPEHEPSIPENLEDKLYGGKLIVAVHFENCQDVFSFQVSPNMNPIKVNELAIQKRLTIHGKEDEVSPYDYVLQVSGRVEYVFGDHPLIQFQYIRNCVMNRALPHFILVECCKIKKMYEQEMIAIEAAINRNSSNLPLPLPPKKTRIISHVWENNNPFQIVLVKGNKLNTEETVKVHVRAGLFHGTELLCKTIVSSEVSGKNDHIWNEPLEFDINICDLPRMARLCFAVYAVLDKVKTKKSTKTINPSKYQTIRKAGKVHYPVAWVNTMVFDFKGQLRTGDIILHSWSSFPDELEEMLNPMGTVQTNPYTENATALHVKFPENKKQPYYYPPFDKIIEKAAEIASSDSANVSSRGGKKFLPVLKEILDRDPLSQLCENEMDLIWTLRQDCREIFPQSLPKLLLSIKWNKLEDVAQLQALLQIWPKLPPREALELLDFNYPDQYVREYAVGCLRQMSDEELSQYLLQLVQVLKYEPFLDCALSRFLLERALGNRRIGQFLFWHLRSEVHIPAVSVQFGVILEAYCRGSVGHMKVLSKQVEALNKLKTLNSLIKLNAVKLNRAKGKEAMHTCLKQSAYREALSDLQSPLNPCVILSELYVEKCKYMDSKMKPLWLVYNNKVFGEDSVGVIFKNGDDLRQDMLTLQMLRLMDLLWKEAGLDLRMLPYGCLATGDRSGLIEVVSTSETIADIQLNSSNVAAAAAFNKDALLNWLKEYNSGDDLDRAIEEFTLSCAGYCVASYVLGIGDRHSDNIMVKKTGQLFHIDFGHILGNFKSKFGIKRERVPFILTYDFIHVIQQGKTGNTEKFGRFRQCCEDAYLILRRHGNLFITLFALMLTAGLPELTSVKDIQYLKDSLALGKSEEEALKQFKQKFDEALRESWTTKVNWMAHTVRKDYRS
UniProt O00329: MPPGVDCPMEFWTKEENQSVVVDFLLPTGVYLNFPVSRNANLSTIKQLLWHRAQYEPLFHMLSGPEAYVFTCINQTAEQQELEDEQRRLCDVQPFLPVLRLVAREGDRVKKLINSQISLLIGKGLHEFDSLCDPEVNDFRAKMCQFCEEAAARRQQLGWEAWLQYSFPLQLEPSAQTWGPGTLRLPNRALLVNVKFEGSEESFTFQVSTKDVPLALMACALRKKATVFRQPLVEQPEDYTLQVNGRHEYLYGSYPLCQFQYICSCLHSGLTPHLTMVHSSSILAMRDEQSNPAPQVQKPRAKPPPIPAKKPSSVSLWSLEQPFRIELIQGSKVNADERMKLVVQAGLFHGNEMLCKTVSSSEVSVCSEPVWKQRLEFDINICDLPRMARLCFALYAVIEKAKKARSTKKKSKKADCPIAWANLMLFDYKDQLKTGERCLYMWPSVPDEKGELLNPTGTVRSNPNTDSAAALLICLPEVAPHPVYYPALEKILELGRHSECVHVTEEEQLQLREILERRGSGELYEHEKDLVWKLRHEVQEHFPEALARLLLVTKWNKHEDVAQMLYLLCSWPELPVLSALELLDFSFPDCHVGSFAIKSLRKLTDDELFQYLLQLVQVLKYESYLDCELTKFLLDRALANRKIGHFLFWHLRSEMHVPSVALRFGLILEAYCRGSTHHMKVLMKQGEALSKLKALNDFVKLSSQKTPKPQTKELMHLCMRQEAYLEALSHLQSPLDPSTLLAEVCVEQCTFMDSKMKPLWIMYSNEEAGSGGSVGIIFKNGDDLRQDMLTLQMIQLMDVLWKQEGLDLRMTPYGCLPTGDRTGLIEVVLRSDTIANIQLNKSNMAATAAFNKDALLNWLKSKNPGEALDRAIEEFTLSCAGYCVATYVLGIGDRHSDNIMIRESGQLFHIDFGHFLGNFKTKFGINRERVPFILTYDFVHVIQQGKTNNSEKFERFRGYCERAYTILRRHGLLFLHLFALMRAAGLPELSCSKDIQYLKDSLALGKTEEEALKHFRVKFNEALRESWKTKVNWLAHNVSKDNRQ
UniProt Q9UBF8: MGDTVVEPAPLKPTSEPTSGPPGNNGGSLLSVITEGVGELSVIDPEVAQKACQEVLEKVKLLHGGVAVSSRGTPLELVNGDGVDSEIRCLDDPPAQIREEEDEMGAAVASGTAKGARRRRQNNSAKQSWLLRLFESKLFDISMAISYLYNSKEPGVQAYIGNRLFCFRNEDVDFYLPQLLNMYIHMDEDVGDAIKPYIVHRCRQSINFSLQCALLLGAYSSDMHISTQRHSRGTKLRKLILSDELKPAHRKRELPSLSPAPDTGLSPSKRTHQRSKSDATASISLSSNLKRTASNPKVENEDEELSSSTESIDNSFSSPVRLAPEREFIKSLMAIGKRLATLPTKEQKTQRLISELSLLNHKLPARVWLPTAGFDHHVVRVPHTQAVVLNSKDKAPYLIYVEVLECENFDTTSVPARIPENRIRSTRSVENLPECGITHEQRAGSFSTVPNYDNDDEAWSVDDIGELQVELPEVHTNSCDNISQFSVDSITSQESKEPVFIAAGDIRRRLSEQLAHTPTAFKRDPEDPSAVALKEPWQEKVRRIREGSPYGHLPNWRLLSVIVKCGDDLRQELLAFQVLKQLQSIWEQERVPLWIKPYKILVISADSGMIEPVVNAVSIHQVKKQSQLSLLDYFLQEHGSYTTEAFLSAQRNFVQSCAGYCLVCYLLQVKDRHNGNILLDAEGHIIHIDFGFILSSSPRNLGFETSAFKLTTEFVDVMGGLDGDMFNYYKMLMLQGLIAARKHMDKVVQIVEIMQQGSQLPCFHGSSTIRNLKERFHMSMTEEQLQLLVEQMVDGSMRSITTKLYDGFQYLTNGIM
UniProt Q8NEB9, whole entry: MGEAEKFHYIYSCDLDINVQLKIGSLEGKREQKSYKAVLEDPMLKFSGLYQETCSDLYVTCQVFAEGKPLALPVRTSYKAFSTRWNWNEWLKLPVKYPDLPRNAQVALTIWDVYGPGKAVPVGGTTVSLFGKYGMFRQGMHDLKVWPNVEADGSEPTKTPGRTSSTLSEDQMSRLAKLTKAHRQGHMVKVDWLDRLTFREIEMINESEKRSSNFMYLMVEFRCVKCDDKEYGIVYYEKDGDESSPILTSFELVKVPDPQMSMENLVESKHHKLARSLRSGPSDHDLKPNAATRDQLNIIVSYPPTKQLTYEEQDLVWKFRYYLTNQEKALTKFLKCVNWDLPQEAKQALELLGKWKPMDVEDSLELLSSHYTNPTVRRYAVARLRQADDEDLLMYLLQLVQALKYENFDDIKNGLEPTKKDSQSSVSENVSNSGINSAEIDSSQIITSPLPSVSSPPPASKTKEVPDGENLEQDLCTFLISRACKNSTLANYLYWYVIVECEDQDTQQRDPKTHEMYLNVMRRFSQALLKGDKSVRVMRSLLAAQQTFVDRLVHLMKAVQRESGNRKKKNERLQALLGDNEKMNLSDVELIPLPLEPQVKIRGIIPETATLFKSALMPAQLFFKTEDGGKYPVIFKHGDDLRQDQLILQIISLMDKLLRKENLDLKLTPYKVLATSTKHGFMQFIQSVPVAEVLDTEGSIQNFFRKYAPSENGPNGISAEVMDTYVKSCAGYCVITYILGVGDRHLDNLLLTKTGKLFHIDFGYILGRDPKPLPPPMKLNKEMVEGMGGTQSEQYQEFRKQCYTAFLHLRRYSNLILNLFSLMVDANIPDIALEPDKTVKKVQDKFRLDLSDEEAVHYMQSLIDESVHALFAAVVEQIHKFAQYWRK

Structures can show the parent of a compound that is named as a salt. Where two headings read alike, the source gives them in different places.

One experiment has as its target PI 3-kinase alpha (Homo sapiens (Human), UniProt P42336). The note with it: read-out: Assay A PI3Kα IC50.
For experiment [1], the target named is T1, PI 3-kinase beta (Homo sapiens (Human), UniProt P42338).
A further experiment deals with PI 3-kinase delta (Homo sapiens (Human), UniProt O00329). The note with it: read-out: Assay F PI3Kδ IC50.
The target of experiment [2] is T2, PI 3-kinase alpha (Rat-1 pBABEpuro Myr-HA-hp110 alpha cells) (Homo sapiens (Human), UniProt P42336). Nature of the experiment: cell-based. The note with it: Assay H PI3Kα IC50.
Experiment [3] addresses T3, PI 3-kinase beta (Rat-1 pBABEpuro Myr-HA-hp110 beta cells) (Homo sapiens (Human), UniProt P42338). In words: cell-based. To be noted: Assay I PI3Kβ IC50.
The target in experiment [4] is T3, PI 3-kinase beta (Rat-1 pBABEpuro Myr-HA-hp110 beta cells). In words: cell-based.
The target in experiment [5] is T1, PI 3-kinase beta. Nature of the experiment: biochemical. To be noted: Assay B PI3Kβ IC50 (μM).
In another experiment the target is PI 4-kinase beta (Homo sapiens (Human), UniProt Q9UBF8). Nature of the experiment: biochemical.
In another experiment the target is Vps34 (Homo sapiens (Human), UniProt Q8NEB9). In words: biochemical.
For experiment [6], the target named is T2, PI 3-kinase alpha (Rat-1 pBABEpuro Myr-HA-hp110 alpha cells). Nature of the experiment: cell-based.

As for `Cc1cc(-c2cc(-c3cc(S(=O)(=O)NCC4(O)CCC4)ccc3C)cnc2N)on1` [Example 37.35, 3-(6-Amino-5-(3-methylisoxazol-5-yl)pyridin-3-yl)-N-((1-hydroxycyclobutyl)methyl)-4-methylbenzenesulfonamide], the IC50 at PI 3-kinase alpha was 590 nM; on PI 3-kinase beta [1] (read-out: Assay B PI3Kβ IC50), 3300 nM; on PI 3-kinase delta, 1200 nM; in [2] it was 3570 nM; in experiment [3] it was over 10000 nM.
For the molecule `Cc1ncc(-c2cc(-c3cc(S(=O)(=O)N[C@H]4CC[C@@H](O)C4)ccc3C)cnc2N)o1` (racemic) [Example 104.16, (+/−)-cis-3-(6-amino-5-(2-methyloxazol-5-yl)pyridin-3-yl)-N-(3-hydroxycyclopentyl)-4-methylbenzenesulfon-amide], the IC50 in experiment [4] was 5060 nM; on PI 3-kinase beta [5], over 10 µM.
Consider `Cc1ncc(-c2cc(-c3cc(S(=O)(=O)N[C@H]4CC[C@H](O)C4)ccc3C)cnc2N)o1` (racemic) [Example 104.4, (+/−)trans-3-(6-amino-5-(2-methyloxazol-5-yl)pyridin-3-yl)-N-(3-hydroxycyclopentyl)-4-methylbenzenesulfon-amide], for which the IC50 in [4] is 7890 nM; against PI 3-kinase beta [5], 1 µM.
Turning to `COCCNS(=O)(=O)c1cc(-c2cnc(N)c(C(=O)c3cccnc3)n2)ccc1C(F)(F)F` [(viii), reference compound], the IC50 at PI 3-kinase beta [1] (read-out: Assay B PI3Kβ) was determined as 460 nM; at PI 4-kinase beta (Assay D PI4Kβ) it was 0.29 µM.
`CNC(=O)c1nc(-c2ccc(Cl)c(S(=O)(=O)Nc3cccc(F)c3C)c2)cnc1N` [(xi), reference compound]: the IC50 is 1600 nM against Vps34 and 0.41 µM against PI 4-kinase beta (Assay D PI4Kβ).
Take `Cc1cc(-c2cc(-c3cc(S(=O)(=O)N[C@H]4C[C@H](O)C4)ccc3C)cnc2N)on1` [Example 36b, trans-3-(6-Amino-5-(3-methylisoxazol-5-yl)pyridin-3-yl)-N-(−3-hydroxycyclobutyl)-4-methylbenzenesulfonamide]: the IC50 is over 10000 nM in experiment [2], 9630 nM in experiment [3] and over 10000 nM at Vps34.
Take `Cc1nnc(-c2cc(-c3cc(S(=O)(=O)NCCC(C)(C)O)ccc3C)cnc2N)s1` [Example 105, 3-(6-amino-5-(5-methyl-1,3,4-thiadiazol-2-yl)pyridin-3-yl)-N-(3-hydroxy-3-methylbutyl)-4-methylbenzenesulfonamide]: the IC50 on PI 3-kinase alpha was found to be 1300 nM; at PI 3-kinase beta [1] (read-out: Assay B PI3Kβ IC50), 7600 nM; in experiment [6], 6380 nM; in experiment [4] it was 6590 nM.
As for `Cc1cc(-c2cc(-c3cc(S(=O)(=O)N[C@H]4CCC[C@H](O)C4)ccc3C)cnc2N)on1` [Example 19.16, 3-(6-amino-5-(3-methylisoxazol-5-yl)pyridin-3-yl)-N-((1S,3S)-3-hydroxycyclohexyl)-4-methylbenzenesulfon-amide trifluoroacetic acid salt], the IC50 at PI 3-kinase alpha was 400 nM; on PI 3-kinase beta [1] (read-out: Assay B PI3Kβ IC50), 980 nM; in experiment [6], 3720 nM; in experiment [4], over 10000 nM.
Take `Cc1ncc(-c2cc(-c3cc(S(=O)(=O)NCCO)ccc3C)cnc2N)o1` [Example 104.5, 3-(6-amino-5-(2-methyloxazol-5-yl)pyridin-3-yl)-N-(2-hydroxyethyl)-4-methylbenzenesulfon-amide]: the IC50 is 350 nM at PI 3-kinase alpha, over 10000 nM on PI 3-kinase beta [1] (read-out: Assay B PI3Kβ IC50), 6620 nM in experiment [6] and over 10000 nM in [4].
`Cc1cc(-c2cc(-c3cc(S(=O)(=O)N4CCCC(C)(O)CC4)ccc3C)cnc2N)on1` (centres unmarked) [Example 19.21, 1-((3-(6-amino-5-(3-methylisoxazol-5-yl)pyridin-3-yl)-4-methylphenyl)sulfonyl)-4-methylazepan-4-ol trifluoroacetic acid salt]: the IC50 at PI 3-kinase alpha is 660 nM; at PI 3-kinase beta [1] (read-out: Assay B PI3Kβ IC50) it was 3400 nM; in experiment [6], 2910 nM; in [4], over 10000 nM.
As to `Cc1cc(-c2cc(-c3cc(S(=O)(=O)NCC4(O)CC4)ccc3C)cnc2N)on1` [Example 19.10, 3-(6-amino-5-(3-methylisoxazol-5-yl)pyridin-3-yl)-N-((1-hydroxycyclopropyl)methyl)-4-methylbenzenesulfon-amide trifluoroacetic acid salt], the IC50 at PI 3-kinase alpha was 420 nM; at PI 3-kinase beta [1] (read-out: Assay B PI3Kβ IC50), 3500 nM; in [6], 7300 nM; in experiment [4], over 10000 nM.
Consider `Cc1cc(-c2cc(-c3cc(S(=O)(=O)N4CC5(CCOC5)C4)ccc3C)cnc2N)on1` [Example 19.1, 5-(5-(6-oxa-2-azaspiro[3.4]octan-2-ylsulfonyl)-2-methylphenyl)-3-(3-methylisoxazol-5-yl)pyridin-2-amine trifluoroacetic acid salt], for which the IC50 at PI 3-kinase alpha was 550 nM; at PI 3-kinase beta [1] (read-out: Assay B PI3Kβ IC50), over 10000 nM; in experiment [6] it was 9290 nM; in experiment [4], over 10000 nM.
Consider `Cc1noc(-c2cc(-c3cc(S(=O)(=O)NCC(C)(C)O)c(Cl)cc3C)cnc2N)n1` [Example 89, 5-(6-Amino-5-(3-methyl-1,2,4-oxadiazol-5-yl)pyridin-3-yl)-2-chloro-N-(2-hydroxy-2-methylpropyl)-4-methylbenzenesulfonamide], for which the IC50 on PI 3-kinase alpha was 100 nM; at PI 3-kinase beta [1] (read-out: Assay B PI3Kβ IC50) it was 230 nM; in experiment [6] it was 730 nM; in experiment [4], 1620 nM.
In the same order, the values of `Cc1ncc(-c2cc(-c3cc(S(=O)(=O)NCC(F)F)ccc3C)cnc2N)o1` [Example 104.10, 3-(6-amino-5-(2-methyloxazol-5-yl)pyridin-3-yl)-N-(2,2-difluoroethyl)-4-methylbenzenesulfon-amide] are 270 nM, 1100 nM, 1100 nM and 8990 nM.
As to `Cc1ncc(-c2cc(-c3cc(S(=O)(=O)N4CC(CO)C4)ccc3C)cnc2N)s1` [Example 83.1, (1-((3-(6-Amino-5-(2-methylthiazol-5-yl)pyridin-3-yl)-4-methylphenyl)sulfonyl)azetidin-3-yl)methanol], the IC50 was found to be 4600 nM on Vps34 and 2.5 µM against PI 4-kinase beta (Assay D PI4Kβ IC50 (μM)).
In the case of `COC[C@@H]1COCCN1S(=O)(=O)c1ccc(C)c(-c2cnc(N)c(-c3cc(C)no3)c2)c1` [Example 19.20, (R)-5-(5-((3-(methoxymethyl)morpho-lino)sulfonyl)-2-methylphenyl)-3-(3-methylisoxazol-5-yl)pyridin-2-amine trifluoroacetic acid salt], the IC50 at PI 3-kinase alpha was 2800 nM; on PI 3-kinase beta [1] (read-out: Assay B PI3Kβ IC50) it was over 10000 nM; in experiment [6], over 10000 nM; in experiment [4] it was over 10000 nM.
For the molecule `Cc1cc(-c2cc(-c3cc(S(=O)(=O)NOC4CCOC4)ccc3C)cnc2N)on1` (single isomer, unassigned) [Example 21a, (R or S)-3-(6-Amino-5-(3-methylisoxazol-5-yl)pyridin-3-yl)-4-methyl-N-((tetrahydrofuran-3-yl)oxy)benzenesulfonamide], the IC50 was 740 nM in [2], 0.68 µM against PI 3-kinase beta [5] and over 10000 nM against Vps34.
Take `Cc1cc(-c2cc(-c3cc(S(=O)(=O)NCCC4CCOCC4)ccc3C)cnc2N)on1` [Example 19.12, 3-(6-amino-5-(3-methylisoxazol-5-yl)pyridin-3-yl)-4-methyl-N-(2-(tetrahydro-2H-pyran-4-yl)ethyl)benzenesulfon-amide trifluoroacetic acid salt]: the IC50 is 240 nM on PI 3-kinase alpha, 2600 nM on PI 3-kinase beta [1] (read-out: Assay B PI3Kβ IC50), 1640 nM in experiment [6] and over 10000 nM in experiment [4].
With `Cc1cc(-c2cc(-c3cc(S(=O)(=O)N4CCCC4(C)C)ccc3C)cnc2N)on1` [Example 19.9, 5-(5-((2,2-dimethylpyrrolidin-1-yl)sulfonyl)-2-methylphenyl)-3-(3-methylisoxazol-5-yl)pyridin-2-amine trifluoroacetic acid salt], the IC50 on PI 3-kinase alpha is 1600 nM; at PI 3-kinase beta [1] (read-out: Assay B PI3Kβ IC50), 9500 nM; in experiment [6], 5440 nM; in experiment [4], over 10000 nM.
For the molecule `Cc1ncc(-c2cc(-c3cc(S(=O)(=O)NCCCO)ccc3C)cnc2N)o1` [Example 104.6, 3-(6-amino-5-(2-methyloxazol-5-yl)pyridin-3-yl)-N-(3-hydroxypropyl)-4-methylbenzenesulfon-amide], the IC50 is 220 nM at PI 3-kinase alpha, over 10000 nM on PI 3-kinase beta [1] (read-out: Assay B PI3Kβ IC50), 5290 nM in experiment [6] and over 10000 nM in experiment [4].
With `Cc1ncc(-c2cc(-c3cc(S(=O)(=O)NCC4(CO)CCOCC4)ccc3C)cnc2N)o1` [Example 104.13, 3-(6-amino-5-(2-methyloxazol-5-yl)pyridin-3-yl)-N-((4-(hydroxymethyl)tetra-hydro-2H-pyran-4-yl)methyl)-4-methylbenzenesulfon-amide], the IC50 is 240 nM on PI 3-kinase alpha, 1800 nM at PI 3-kinase beta [1] (read-out: Assay B PI3Kβ IC50), over 10000 nM in [6] and over 10000 nM in experiment [4].
Regarding `Cc1cc(-c2cc(-c3cc(S(=O)(=O)N4CCNC(=O)C4)ccc3C)cnc2N)on1` [Example 19.17, 4-((3-(6-amino-5-(3-methylisoxazol-5-yl)pyridin-3-yl)-4-methylphenyl)sulfonyl) piperazin-2-one trifluoroacetic acid salt], the IC50 was 1000 nM on PI 3-kinase alpha, over 10000 nM at PI 3-kinase beta [1] (read-out: Assay B PI3Kβ IC50), over 10000 nM in experiment [6] and over 10000 nM in [4].
